Each compound was assayed on primary CLL cells (assay: Activity screening, MTT viability, primary CLL cells). Details: CLL cell, 72 h, three days; quantity not given; repeat runs (1st), (2nd).
Type: cell-based
Procedure: They were plated in 96-well plates at 100,000 cells/well. Titrated concentrations of the compound to be tested were added to the culture medium. The cells were incubated three days at 37° C., 5% CO2. Viability of the cells was assayed by standard MTT assay. Each drug concentration was done in duplicate.

First: CCc1cccc2c3c([nH]c12)C(CC)(CCO)OCC3 (stereo not drawn) [Compound 1, 2-(1,8-Diethyl-1,3,4,9-tetrahydropyrano[3,4-b]indol-1-yl)-ethanol]
Second: CCc1cccc2c3c([nH]c12)C(CC)(CCOC)OCC3 (stereo not drawn) [Compound 2, 1,8-Diethyl-1-(2-methoxyethyl)-1,3,4,9-tetrahydropyrano[3,4-b]indole]
The EC50 of the first is lower: 177 µM for the first, greater than 1000 µM for the second.

CCc1cccc2c3c([nH]c12)C(CC)(CC=N)OCC3 (stereo not drawn) [Compound 7, 2-(1,8-Diethyl-1,3,4,9-tetrahydropyrano[3,4-b]indol-yl)-ethylideneamine] and CCc1cccc2c3c([nH]c12)C(CC)(CC(C)=O)OCC3 (stereo not drawn) [Compound 13, 1-(1,8-Diethyl-1,3,4,9-tetrahydropyrano[3,4-b]indol-1-yl)-propan-2-one] are within 1.5-fold of each other in EC50: 714 µM for the first, 686 µM for the second.

CCc1cccc2c3c([nH]c12)[C@@](CC)(CC(=O)O)OCC3 [R-etodolac] showed an EC50 of 174 µM.

Same assay, conditions: three days; quantity not given; repeat runs (1st), (2nd)

For CCc1cccc2c3c([nH]c12)[C@@](CC)(CC(=O)O)OCC3 [R-etodolac], the EC50 was 263 µM.

— patent publication US7361680B2, “Indole compounds useful for the treatment of cancer” (The Regents of the University of California, priority 1999, dated 2008)
